According to patent US10190170B2, “Maker for diagnosing HER2 inhibitor resistant cancer, diagnostic kit comprising same, and method for diagnosing HER2 inhibitor resistant cancer” (NATIONAL CANCER CENTER, priority 2014, dated 2019):

Columns and labels:
Assay type in all cases: cell-based, human
[1] = tested on: JIMT-1 cells (HER2 inhibitor-resistant cell line); experiment: Expression of HER2 inhibitor resistance-associated genes after herceptin treatment (real-time RT-PCR)
[2] = tested on: SKBR3 cells (HER2 inhibitor-sensitive cell line); experiment: as above
[3] = tested on: HER2 protein in SKBR3 cells; experiment: HER2 protein expression upon herceptin treatment (western blot); conditions: SKBR3, 10 μg/ml herceptin, 4 days, FIG. 13
Experimental: Specifically, the used human SKBR3 and JIMT-1 cells were provided from a public institution, American Type Culture Collection (ATCC). The SKBR3 and JIMT-1 human breast cancer cell lines were used within 6 months after resuscitation. SKBR3 cells were cultured in McCoy's 5A medium (Sigma-aldrich, USA), and JIMT-1 cells were cultured in DMEM medium (Hyclone, Thermo Fisher, USA) under the culture condition of 37° C., 5% carbon dioxide, and 10% of introduced FBS (Hyclone). Then, 2.5×10^5 number of cells were seeded and cultured under 70-80% of normoxic atmosphere. Thereafter, each of two cell line was respectively cultured under 10 μg/ml herceptin-treated and herceptin-untreated states for 4 days.
Also, during the culturing process, an amount of HER2 expression was evaluated at each day. […] An expression degree was measured by using imaging experiment software, Image Lab software (Bio-Rad Co.), and the result was shown in FIG. 13 below. β-actin was used to check whether the procedure and analysis were appropriately performed by the specific method as in the prior art document [Antitumor agent PX-12 et al., (2011) Cancer Chemother Pharmacol, 68:405-413] by using 2(-delta-delta C(T)) method as in the prior art document [Analyzing real-time PCR data et al., (2008) Nature Protocols, 3:1101-1108].

[4] = tested on: JIMT-1 cells with knocked-down HER2 inhibitor resistance-associated gene; experiment: Cell viability after siRNA knock-down of a resistance-associated gene and herceptin treatment; conditions: JIMT-1, siRNA 50 nM 48 hours, then 10 μg/ml herceptin 48 hours, FIG. 6
Experimental: Firstly, 4,000 number of SKBR3 cells and 2,000 number of JIMT-1 cells were plated on a 384-well plate (Greiner Co., Germany). Then, cells were plated triplicate, and 6 images were taken for each well. siRNA for knock-down of a gene associated with HER2 inhibitor resistance was purchased from Thermo Scientific, Co., and prepared such that final concentration became 50 nM. 0.5 μl of DharmaFECT1 was used for each well. […] A nucleus was stained with Draq5 (Cell Signaling Technology Co.) to count surviving cells. Opera high content screening system, (OPERA, PerkinElmer Co.) was used for the imaging and cell counting. In addition, for siRNA data analysis, PRISM (version 5) software was used.

[5] = JIMT-1, 10 μg/ml herceptin, 24 hours, FIG. 4
[6] = JIMT-1, 10 μg/ml herceptin, 48 hours, FIG. 5
[7] = SKBR3, 10 μg/ml herceptin, 24 hours, FIG. 4

## trastuzumab [herceptin]
[1]; [5]
  amount of expression of gene ARHGEF12 increased: about 65%
  amount of expression of gene EGF increased: about 37%
  expression amounts of 25 genes associated with herceptin resistance: increased amounts of expression of most genes
[1]; [6]
  amount of expression of gene ENAH increased: about 51%
  expression amount of gene TJP2 increased: about 35%
  expression amounts of 25 genes associated with herceptin resistance: remarkably increased amounts of expression of almost genes
[1]; JIMT-1, herceptin treatment, 48 hours versus 24 hours
  expression amount of TJP2 gene at 48 hours increased with respect to expression amount after 24 hours: about 86%
[1]; JIMT-1, herceptin, 24 hours, FIG. 4
  regulation of TJP2 gene expression: downregulated
[1]; JIMT-1, herceptin, 48 hours, FIG. 5
  expression amount of gene ICOSLG increased: about 194%
[2]; [7]
  amount of expression of gene ATF4 reduced: about 33%
  amount of expression of gene CHEK2 reduced: about 32%
  expression amounts of 25 genes associated with herceptin resistance: reduced amounts of expression of most genes
[2]; SKBR3, 10 μg/ml herceptin, 48 hours, FIG. 5
  expression amounts of 25 genes associated with herceptin resistance: remarkably reduced amounts of expression of almost genes
[2]; SKBR3, herceptin treatment, 48 hours versus 24 hours
  expression amount of ICOSLG gene at 48 hours reduced with respect to expression amount at 24 hours: about 64%
[2]; SKBR3, herceptin, 24 hours, FIG. 4
  regulation of ICOSLG gene expression: upregulated
[3]
  change in HER2 expression: almost no change
[4]
  cell viability after gene knock-down and herceptin treatment: reduced
